In PubChem BioAssay AID651661 (Broad Institute, 2012) one finds inhibition data, which are given here for 2 compounds.

The structures appear in SMILES notation. The list shows a part of the results, in another mix than the full data. Activity calls are given as the source filed them.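 The calls were made as follows: active = mean inhibition of at least 50% after viability correction, with every replicate also passing that limit; inconclusive = mean reaches 50% but only one of two replicates passes; inactive = the rest.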

The experiment in a line: EWS/Fli-driven NR0B1 reporter inhibitors, primary screen, A673 cells, NR0B1 luciferase, luminescence, MLPCN library (AID 651661).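 Also: firefly luciferase signal divided by Alamar Blue viability fluorescence both relative to DMSO.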 The settings on record: viability-normalised, at 12.6 µM, stronger effect = higher value.
Take `CCc1ccc(OP(C)(=O)N2CCN(c3ccc([N+](=O)[O-])cc3)CC2)cc1` (configuration not stated): the inhibition is inactive: 11.9%.
`COc1ccccc1OP(C)(=O)Nc1cccc(Br)c1` (configuration not stated): the inhibition was inactive: -13.1%.

One may read the inhibition as the relative decrease from the control value, in per cent.
